The values below come from patent publication US20140100156A1 (SANOFI, priority 2012, published 2014).

Chains of the proteins cited; added tags and fusions are not shown. Residues count along the entry.
UniProt P43220, 24-463: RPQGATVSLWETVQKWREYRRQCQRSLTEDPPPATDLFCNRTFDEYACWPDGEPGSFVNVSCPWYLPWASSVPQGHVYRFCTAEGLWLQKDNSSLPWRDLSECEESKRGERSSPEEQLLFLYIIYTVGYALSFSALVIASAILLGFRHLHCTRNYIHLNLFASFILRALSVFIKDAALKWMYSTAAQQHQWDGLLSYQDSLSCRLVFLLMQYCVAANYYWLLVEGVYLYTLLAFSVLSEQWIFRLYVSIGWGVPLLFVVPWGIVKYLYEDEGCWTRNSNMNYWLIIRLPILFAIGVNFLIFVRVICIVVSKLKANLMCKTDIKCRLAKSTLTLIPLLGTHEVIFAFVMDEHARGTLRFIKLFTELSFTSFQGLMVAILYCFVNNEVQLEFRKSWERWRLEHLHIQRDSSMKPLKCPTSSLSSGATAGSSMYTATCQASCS
UniProt P47871, 26-477: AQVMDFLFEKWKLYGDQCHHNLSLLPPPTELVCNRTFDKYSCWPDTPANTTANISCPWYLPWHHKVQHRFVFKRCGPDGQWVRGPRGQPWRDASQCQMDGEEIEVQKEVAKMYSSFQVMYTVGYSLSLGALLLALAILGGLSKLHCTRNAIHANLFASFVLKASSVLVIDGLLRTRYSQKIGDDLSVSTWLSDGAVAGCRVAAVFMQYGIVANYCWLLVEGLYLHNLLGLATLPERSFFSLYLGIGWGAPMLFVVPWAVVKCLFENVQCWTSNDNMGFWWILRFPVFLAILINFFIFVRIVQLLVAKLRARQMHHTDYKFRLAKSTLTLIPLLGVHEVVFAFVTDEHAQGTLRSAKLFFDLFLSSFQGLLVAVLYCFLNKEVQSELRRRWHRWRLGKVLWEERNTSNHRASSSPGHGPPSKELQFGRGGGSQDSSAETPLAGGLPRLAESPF

In one assay the target is T1, human GLP-1 receptor (Homo sapiens, UniProt P43220).
T1 construct: expressed in transfected cells; host or cells: HEK-293
Nature of the assay: cAMP response (HTRF) of HEK-293 cells stably expressing human GLP-1 receptor. Type of assay: cell-based. The following applies: read-out: EC50 hGLP-1R.

For another assay, the target named is T2, human glucagon receptor (Homo sapiens, UniProt P47871).
T2 construct: expressed in transfected cells; host or cells: HEK-293
The assay can be described thus: cAMP response (HTRF) of HEK-293 cells stably expressing human glucagon receptor. Format: cell-based. The following applies: read-out: EC50 hGlucagon-R.

Where [1] appears, read: Table 8, comparison testing of position 14.

Read-outs that look alike come from different tables or passages of the source.

In the case of `CCCCCCCCCCCCCCCCCCCCC(=O)N[C@@H](CCC(=O)NCCCC[C@H](NC(=O)[C@H](CCC(N)=O)NC(=O)[C@H](CCCCN)NC(=O)[C@H](CO)NC(=O)[C@H](CC(C)C)NC(=O)[C@H](CC(=O)O)NC(=O)[C@H](CO)NC(=O)[C@@H](NC(=O)[C@H](Cc1ccccc1)NC(=O)[C@@H](NC(=O)CNC(=O)[C@H](CCC(N)=O)NC(=O)C(C)(C)NC(=O)[C@@H](N)Cc1c[nH]cn1)[C@@H](C)O)[C@@H](C)O)C(=O)N[C@@H](CCC(=O)O)C(=O)N[C@@H](CO)C(=O)N[C@@H](CCCNC(=N)N)C(=O)N[C@@H](C)C(=O)N[C@@H](C)C(=O)N[C@@H](CCC(N)=O)C(=O)N[C@@H](CC(C)C)C(=O)N[C@@H](Cc1ccccc1)C(=O)N[C@H](C(=O)N[C@@H](CCC(=O)O)C(=O)N[C@@H](Cc1c[nH]c2ccccc12)C(=O)N[C@@H](CC(C)C)C(=O)N[C@@H](CCCCN)C(=O)N[C@@H](C)C(=O)NCC(=O)NCC(=O)N1CCC[C@H]1C(=O)N[C@@H](CO)C(=O)N[C@@H](CO)C(=O)NCC(=O)N[C@@H](C)C(=O)N1CCC[C@H]1C(=O)N1CCC[C@H]1C(=O)N1CCC[C@H]1C(=O)N[C@@H](CO)C(N)=O)[C@@H](C)CC)C(=O)O` [compound 203], the EC50 at human GLP-1 receptor (Table 5, cAMP, HEK-293) turned out to be 0.0349 nM; on human glucagon receptor (Table 5, cAMP, HEK-293), 0.0131 nM.

As for `CC[C@H](C)[C@H](NC(=O)[C@H](Cc1ccccc1)NC(=O)[C@H](CC(=O)O)NC(=O)[C@H](CCC(N)=O)NC(=O)[C@H](C)NC(=O)[C@H](CCCNC(=N)N)NC(=O)[C@H](CCCNC(=N)N)NC(=O)[C@H](CO)NC(=O)[C@H](CCC(=O)O)NC(=O)[C@H](CCSC)NC(=O)[C@H](CCC(N)=O)NC(=O)[C@H](CCCCN)NC(=O)[C@H](CO)NC(=O)[C@H](CC(C)C)NC(=O)[C@H](CC(=O)O)NC(=O)[C@H](CO)NC(=O)[C@@H](NC(=O)[C@H](Cc1ccccc1)NC(=O)[C@@H](NC(=O)CNC(=O)[C@H](CCC(N)=O)NC(=O)[C@@H](CO)NC(=O)[C@@H](N)Cc1c[nH]cn1)[C@@H](C)O)[C@@H](C)O)C(=O)N[C@@H](CCC(=O)O)C(=O)N[C@@H](Cc1c[nH]c2ccccc12)C(=O)N[C@@H](CC(C)C)C(=O)N[C@@H](CCCCN)C(=O)N[C@@H](C)C(=O)NCC(=O)NCC(=O)N1CCC[C@H]1C(=O)N[C@@H](CO)C(=O)N[C@@H](CO)C(=O)NCC(=O)N[C@@H](C)C(=O)N1CCC[C@H]1C(=O)N1CCC[C@H]1C(=O)N1CCC[C@H]1C(=O)N[C@@H](CO)C(N)=O` [compound 184], the results for the 50% effective concentration (EC50) at human GLP-1 receptor (setting [1]) and at human glucagon receptor (setting [1]) were 0.0857 nM and 0.991 nM, respectively.

Regarding `CCCCCCCCCCCCCCCC(=O)N[C@@H](CCC(=O)NCCCC[C@H](NC(=O)[C@H](CCC(N)=O)NC(=O)[C@H](CCCCN)NC(=O)[C@H](CO)NC(=O)[C@H](CC(C)C)NC(=O)[C@H](CC(=O)O)NC(=O)[C@H](CO)NC(=O)[C@@H](NC(=O)[C@H](Cc1ccccc1)NC(=O)[C@@H](NC(=O)CNC(=O)[C@H](CCC(N)=O)NC(=O)[C@@H](CO)NC(=O)[C@@H](N)Cc1c[nH]cn1)[C@@H](C)O)[C@@H](C)O)C(=O)N[C@@H](CC(=O)O)C(=O)N[C@@H](CO)C(=O)N[C@@H](CCCNC(=N)N)C(=O)N[C@@H](CCCNC(=N)N)C(=O)N[C@@H](C)C(=O)NC(C)(C)C(=O)N[C@@H](CC(=O)O)C(=O)N[C@@H](Cc1ccccc1)C(=O)N[C@H](C(=O)N[C@@H](CCC(=O)O)C(=O)N[C@@H](Cc1c[nH]c2ccccc12)C(=O)N[C@@H](CC(C)C)C(=O)N[C@@H](CCCCN)C(=O)N[C@@H](C)C(=O)NCC(=O)NCC(=O)N1CCC[C@H]1C(=O)N[C@@H](CO)C(=O)N[C@@H](CO)C(=O)NCC(=O)N[C@@H](C)C(=O)N1CCC[C@H]1C(=O)N1CCC[C@H]1C(=O)N1CCC[C@H]1C(=O)N[C@@H](CO)C(N)=O)[C@@H](C)CC)C(=O)O` [compound 67], the concentration giving a half-maximal response (EC50) came out at 0.0157 nM on human GLP-1 receptor (Table 5, cAMP, HEK-293) and 0.003 nM at human glucagon receptor (Table 5, cAMP, HEK-293).

In the case of `CCCCCCCCCCCCCCCCCCCCC(=O)N[C@@H](CCC(=O)NCCCC[C@H](NC(=O)[C@H](CCC(N)=O)NC(=O)[C@H](CCCCN)NC(=O)[C@H](CO)NC(=O)[C@H](CC(C)C)NC(=O)[C@H](CC(=O)O)NC(=O)[C@H](CO)NC(=O)[C@@H](NC(=O)[C@H](Cc1ccccc1)NC(=O)[C@@H](NC(=O)CNC(=O)[C@H](CCC(N)=O)NC(=O)C(C)(C)NC(=O)[C@@H](N)Cc1c[nH]cn1)[C@@H](C)O)[C@@H](C)O)C(=O)N[C@@H](CC(=O)O)C(=O)N[C@@H](CCCCN)C(=O)N[C@@H](CCCNC(=N)N)C(=O)N[C@@H](C)C(=O)N[C@@H](C)C(=O)N[C@@H](CCC(N)=O)C(=O)N[C@@H](CC(C)C)C(=O)N[C@@H](Cc1ccccc1)C(=O)N[C@H](C(=O)N[C@@H](CCC(=O)O)C(=O)N[C@@H](Cc1c[nH]c2ccccc12)C(=O)N[C@@H](CC(C)C)C(=O)N[C@@H](CCCCN)C(=O)N[C@@H](C)C(=O)N[C@H](C)C(=O)NCC(=O)N1CCC[C@H]1C(=O)N[C@@H](CO)C(=O)N[C@@H](CO)C(=O)NCC(=O)N[C@@H](C)C(=O)N1CCC[C@H]1C(=O)N1CCC[C@H]1C(=O)N1CCC[C@H]1C(=O)N[C@@H](CO)C(N)=O)[C@@H](C)CC)C(=O)O` [compound 212], the EC50 on human GLP-1 receptor (Table 5, cAMP, HEK-293) was 0.0141 nM; at human glucagon receptor (Table 5, cAMP, HEK-293) it was 0.0066 nM.

As for `CCCCCCCCCCCCCCCC(=O)N[C@@H](CCC(=O)NCC[C@H](NC(=O)[C@H](CCC(N)=O)NC(=O)[C@H](CCCCN)NC(=O)[C@H](CO)NC(=O)[C@H](CC(C)C)NC(=O)[C@H](CC(=O)O)NC(=O)[C@H](CO)NC(=O)[C@@H](NC(=O)[C@H](Cc1ccccc1)NC(=O)[C@@H](NC(=O)CNC(=O)[C@H](CCC(N)=O)NC(=O)[C@@H](CO)NC(=O)[C@@H](N)Cc1c[nH]cn1)[C@@H](C)O)[C@@H](C)O)C(=O)N[C@@H](CCC(=O)O)C(=O)N[C@@H](CO)C(=O)N[C@@H](CCCNC(=N)N)C(=O)N[C@@H](CCCNC(=N)N)C(=O)N[C@@H](C)C(=O)N[C@@H](CCC(N)=O)C(=O)N[C@@H](CC(=O)O)C(=O)N[C@@H](Cc1ccccc1)C(=O)N[C@H](C(=O)N[C@@H](CCC(=O)O)C(=O)N[C@@H](Cc1c[nH]c2ccccc12)C(=O)N[C@@H](CC(C)C)C(=O)N[C@@H](CCCCN)C(=O)N[C@@H](C)C(=O)NCC(=O)NCC(=O)N1CCC[C@H]1C(=O)N[C@@H](CO)C(=O)N[C@@H](CO)C(=O)NCC(=O)N[C@@H](C)C(=O)N1CCC[C@H]1C(=O)N1CCC[C@H]1C(=O)N1CCC[C@H]1C(=O)N[C@@H](CO)C(N)=O)[C@@H](C)CC)C(=O)O` [compound 72], the EC50 at human GLP-1 receptor (Table 5, cAMP, HEK-293) was determined as 0.0259 nM; on human glucagon receptor (Table 5, cAMP, HEK-293) it was 0.386 nM.

In the case of `CCCCCCCCCCCCCCCC(=O)N[C@@H](CCC(=O)NCCCC[C@H](NC(=O)[C@H](CCC(N)=O)NC(=O)[C@H](CCCCN)NC(=O)[C@H](CO)NC(=O)[C@H](CC(C)C)NC(=O)[C@H](CC(=O)O)NC(=O)[C@H](CO)NC(=O)[C@@H](NC(=O)[C@H](Cc1ccccc1)NC(=O)[C@@H](NC(=O)CNC(=O)[C@H](CCC(N)=O)NC(=O)[C@@H](CO)NC(=O)[C@@H](N)Cc1c[nH]cn1)[C@@H](C)O)[C@@H](C)O)C(=O)N[C@@H](CCC(=O)O)C(=O)N[C@@H](CO)C(=O)N[C@@H](CCC(=O)O)C(=O)N[C@@H](C)C(=O)N[C@@H](C)C(=O)N[C@@H](CCC(N)=O)C(=O)N[C@@H](CC(=O)O)C(=O)N[C@@H](Cc1ccccc1)C(=O)N[C@H](C(=O)N[C@@H](CCC(=O)O)C(=O)N[C@@H](Cc1c[nH]c2ccccc12)C(=O)N[C@@H](CC(C)C)C(=O)N[C@@H](CCCCN)C(=O)N[C@@H](C)C(=O)NCC(=O)NCC(=O)N1CCC[C@H]1C(=O)N[C@@H](CO)C(=O)N[C@@H](CO)C(=O)NCC(=O)N[C@@H](C)C(=O)N1CCC[C@H]1C(=O)N1CCC[C@H]1C(=O)N1CCC[C@H]1C(=O)N[C@@H](CO)C(N)=O)[C@@H](C)CC)C(=O)O` [compound 20], the EC50 on human GLP-1 receptor (Table 5, cAMP, HEK-293) is 0.0038 nM; at human glucagon receptor (Table 5, cAMP, HEK-293), 0.104 nM.

Consider `CCCCCCCCCCCCCCCCCC(=O)N[C@@H](CCC(=O)NCCCC[C@H](NC(=O)[C@H](CCC(N)=O)NC(=O)[C@H](CCCCN)NC(=O)[C@H](CO)NC(=O)[C@H](CC(C)C)NC(=O)[C@H](CC(=O)O)NC(=O)[C@H](CO)NC(=O)[C@@H](NC(=O)[C@H](Cc1ccccc1)NC(=O)[C@@H](NC(=O)CNC(=O)[C@H](CCC(N)=O)NC(=O)C(C)(C)NC(=O)[C@@H](N)Cc1c[nH]cn1)[C@@H](C)O)[C@@H](C)O)C(=O)N[C@@H](CC(=O)O)C(=O)N[C@@H](CCCCN)C(=O)N[C@@H](CCCNC(=N)N)C(=O)N[C@@H](CCCNC(=N)N)C(=O)N[C@@H](C)C(=O)N[C@@H](CCC(N)=O)C(=O)N[C@@H](CC(C)C)C(=O)N[C@@H](Cc1ccccc1)C(=O)N[C@H](C(=O)N[C@@H](CCC(=O)O)C(=O)N[C@@H](Cc1c[nH]c2ccccc12)C(=O)N[C@@H](CC(C)C)C(=O)N[C@@H](CCCCN)C(=O)N[C@@H](C)C(=O)N[C@H](C)C(=O)NCC(=O)N1CCC[C@H]1C(=O)N[C@@H](CO)C(=O)N[C@@H](CO)C(=O)NCC(=O)N[C@@H](C)C(=O)N1CCC[C@H]1C(=O)N1CCC[C@H]1C(=O)N1CCC[C@H]1C(=O)N[C@@H](CO)C(N)=O)[C@@H](C)CC)C(=O)O` [compound 210], for which the 50% effective concentration (EC50) on human GLP-1 receptor (Table 5, cAMP, HEK-293) amounted to 0.0067 nM; at human glucagon receptor (Table 5, cAMP, HEK-293) it was 0.003 nM.

Take `CCCCCCCCCCCCCCCC(=O)NCCCC[C@H](NC(=O)[C@H](CCC(N)=O)NC(=O)[C@H](CCCCN)NC(=O)[C@H](CO)NC(=O)[C@H](CC(C)C)NC(=O)[C@H](CC(=O)O)NC(=O)[C@H](CO)NC(=O)[C@@H](NC(=O)[C@H](Cc1ccccc1)NC(=O)[C@@H](NC(=O)CNC(=O)[C@H](CCC(N)=O)NC(=O)[C@@H](CO)NC(=O)[C@@H](N)Cc1c[nH]cn1)[C@@H](C)O)[C@@H](C)O)C(=O)N[C@@H](CCC(=O)O)C(=O)N[C@@H](CO)C(=O)N[C@@H](CCC(N)=O)C(=O)N[C@@H](C)C(=O)N[C@@H](C)C(=O)N[C@@H](CCC(N)=O)C(=O)N[C@@H](CC(=O)O)C(=O)N[C@@H](Cc1ccccc1)C(=O)N[C@H](C(=O)N[C@@H](CCC(=O)O)C(=O)N[C@@H](Cc1c[nH]c2ccccc12)C(=O)N[C@@H](CC(C)C)C(=O)N[C@@H](CCCCN)C(=O)N[C@@H](C)C(=O)NCC(=O)NCC(=O)N1CCC[C@H]1C(=O)N[C@@H](CO)C(=O)N[C@@H](CO)C(=O)NCC(=O)N[C@@H](C)C(=O)N1CCC[C@H]1C(=O)N1CCC[C@H]1C(=O)N1CCC[C@H]1C(=O)N[C@@H](CO)C(N)=O)[C@@H](C)CC` [compound 42]: the EC50 on human GLP-1 receptor (Table 5, cAMP, HEK-293) is 0.0102 nM; on human glucagon receptor (Table 5, cAMP, HEK-293) it was 0.199 nM.
